Experimental data published in US20040166062A1, “Ablation therapy using chemical shift magnetic resonance imaging” (priority 2003, published 2004).

Tested on: hepatic tumor
Assay: Paper example: CS-MRI guided chemical ablation of a hepatic tumor
Conditions: slow injection under CS-MRI
Method: An MR-compatible needle is advanced into the lesions to introduce the ablation agent.
(§1) A patient presents for ethanol ablation therapy of a hepatic tumor. The patient is prepared by placement on the MRI scanner platform and the spectrometer is calibrated for ^13C-labeled ethanol using standard T1 and T2-weighted imaging. An MR-compatible needle is advanced into the lesions to introduce the ablation agent. Dynamic two-dimensional, chemical shift MRI is performed during the slow injection of ^13C-labeled ethanol. The distribution of ^13C-labeled ethanol is then directly visualized using chemical shift MRI.
as §1, with “hot saline” for “ethanol”, “^23Na-labeled saline” for “^13C-labeled ethanol”, “^23Na-labeled saline.” for “^13C-labeled ethanol.”

^13C-labeled acetic acid
damage to surrounding tissues: without damage to surrounding tissues
